Measured values taken from patent US8008303B2, “Biphenyl derivatives and their use in treating hepatitis C” (AstraZeneca AB, priority 2005, dated 2011).

System: HCV replicon cells Huh 9B
Assay type: cell-based
Method: HCV replicon cells Huh 9B (ReBlikon), containing the firefly luciferase-ubiquitin-neomycin phosphotransferase fusion protein and EMCV-IRES driven HCV polyprotein with cell culture adaptive mutations.
A flask of cells was trypsinised and a cell count carried out. […] Wells G12 and H12 were left empty in the clear plate as the blank. Plates were then incubated at 37° C. in a 5% CO2 environment for 24 h.
On the following day compound dilutions are made up in medium at twice their desired final concentration in a clear round bottomed plate. All dilutions have a final DMSO concentration of 1%.
Exception: no compound was added to wells A1 and A2 of either plate and 100 μl of 1% DMSO was added to these instead. Plates were then incubated at 37° C. with 5% CO2 for 72 h.
The clear plate was stained with 100 μl 0.5% methylene blue in 50% ethanol at room temperature for 1 h, followed by solvation of the absorbed methylene blue in 100 μl per well of 1% lauroylsarcosine. Absorbance of the plate was measured on a microplate spectrophotometer (Molecular Devices) and the absorbance for each concentration of compound expressed as a proportion of the relative DMSO control.

6-Methoxy-biphenyl-3,4′-dicarboxylic acid 4′-{[4-(1,1-dioxo-1lambda*6*-thiomorpholin-4-ylmethyl)-phenyl]-amide} 4′{[4-(4-methanesulfonyl-piperazin-1-ylmethyl)-phenyl]-amide} [Example 262]
TD50: * (key: * < 50 μM; ** > 50 μM)

6-Methyl-biphenyl-3,4′-dicarboxylic acid 4′-[(1H-indol-6-yl)-amide] 3-[(4-morpholin-4-yl-phenyl)-amide] [Example 44]
TD50 (concentration reducing total cell area by 50% relative to DMSO controls, methylene blue, absorbance 620 nm, 72 h incubation): * (* < 50 μM)

Where two headings read alike, the source gives them in different places.
